According to ChEMBL document CHEMBL3297660, “Combination of cyclohexane and piperazine based κ-opioid receptor agonists: Synthesis and pharmacological evaluation of trans,trans-configured perhydroquinoxalines” (Bioorg Med Chem, 2014):
The source made the active and inactive calls. The calls are words filed in the database; no cut-off is given here.

By UniProt entry, the sequences of proteins in these tests, tags left out.
UniProt Q60492, whole entry: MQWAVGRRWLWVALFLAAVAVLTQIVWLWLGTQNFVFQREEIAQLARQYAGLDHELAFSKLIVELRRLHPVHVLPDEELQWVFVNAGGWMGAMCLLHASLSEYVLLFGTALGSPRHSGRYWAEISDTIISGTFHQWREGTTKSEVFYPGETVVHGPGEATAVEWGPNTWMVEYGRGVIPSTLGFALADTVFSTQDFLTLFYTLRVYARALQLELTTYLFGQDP

Legend:
[1] = biological target: Sigma non-opioid intracellular receptor 1 (Cavia porcellus) (UniProt Q60492); test: Displacement of [3H]-(+)-Pentazocine from sigma1 receptor in guinea pig brain membrane at 1 uM; format: cell membranes
[2] = species on record: Rattus norvegicus; test: Displacement of [3H]-DTG from sigma2 receptor in rat liver membrane at 1 uM; format: cell membranes
[3] = species on record: Sus scrofa; test: Displacement of [3H]-(+)-MK-801 from NMDA receptor in pig brain at 1 uM by scintillation counting analysis

## O=C1N[C@@H]2[C@@H](NCc3ccccc3)CCC[C@H]2N(Cc2ccccc2)C1=O (mixture of isomers)
[1]
  Activity: inactive
[2]
  Activity: inactive
[3]
  Activity: inactive

## c1ccc(CN2CCN[C@H]3[C@H]2CCC[C@@H]3N2CCCC2)cc1 (mixture of isomers)
[1]
  Activity: inactive
[2]
  Activity: inactive
[3]
  Activity: inactive

## COC(=O)N1CCN(C(=O)Cc2ccc(Cl)c(Cl)c2)[C@H]2[C@H]1CCC[C@@H]2N1CCCC1 (racemic)
[2]
  Activity: inactive
[3]
  Activity: inactive

## N[C@H]1CCC[C@@H]2[C@@H]1NC(=O)C(=O)N2Cc1ccccc1 (racemic)
[1]
  Activity: inactive
[2]
  Activity: inactive
[3]
  Activity: inactive

## O=C(Cc1ccc(Cl)c(Cl)c1)N1CCN(Cc2ccccc2)[C@@H]2CCC[C@H](N3CCCC3)[C@H]21 (racemic)
[2]
  Activity: inactive
[3]
  Activity: inactive

## O=C(Cc1ccccc1)N1CCN(Cc2ccccc2)[C@@H]2CCC[C@H](N3CCCC3)[C@H]21 (racemic)
[2]
  Activity: inactive
[3]
  Activity: inactive

## O=C(Cc1ccccc1)N1CCN[C@@H]2CCC[C@H](N3CCCC3)[C@H]21 (racemic)
[2]
  Activity: inactive
[3]
  Activity: inactive

## O=C1N[C@@H]2[C@@H](NCc3ccc(Cl)cc3)CCC[C@H]2N(Cc2ccc(Cl)cc2)C1=O (racemic)
[2]
  Activity: inactive
[3]
  Activity: inactive

## O=C(Cc1ccc(Cl)c(Cl)c1)N1CCN[C@@H]2CCC[C@H](N3CCCC3)[C@H]21 (relative stereo)
[2]
  Activity: inactive
[3]
  Activity: inactive

## O=C1N[C@H]2[C@@H](CCC[C@@H]2N2CCCC2)N(Cc2ccccc2)C1=O (relative stereo)
[1]
  Activity: inactive
[2]
  Activity: inactive
[3]
  Activity: inactive
